The values below come from publication PMC9124818 (Pharmacology Research & Perspectives, 2022).

Amino acid sequences for entries named in this document (tags omitted). Residues count along the entry.
UniProt Q86VL8, 1-566 isoform Q86VL8-3: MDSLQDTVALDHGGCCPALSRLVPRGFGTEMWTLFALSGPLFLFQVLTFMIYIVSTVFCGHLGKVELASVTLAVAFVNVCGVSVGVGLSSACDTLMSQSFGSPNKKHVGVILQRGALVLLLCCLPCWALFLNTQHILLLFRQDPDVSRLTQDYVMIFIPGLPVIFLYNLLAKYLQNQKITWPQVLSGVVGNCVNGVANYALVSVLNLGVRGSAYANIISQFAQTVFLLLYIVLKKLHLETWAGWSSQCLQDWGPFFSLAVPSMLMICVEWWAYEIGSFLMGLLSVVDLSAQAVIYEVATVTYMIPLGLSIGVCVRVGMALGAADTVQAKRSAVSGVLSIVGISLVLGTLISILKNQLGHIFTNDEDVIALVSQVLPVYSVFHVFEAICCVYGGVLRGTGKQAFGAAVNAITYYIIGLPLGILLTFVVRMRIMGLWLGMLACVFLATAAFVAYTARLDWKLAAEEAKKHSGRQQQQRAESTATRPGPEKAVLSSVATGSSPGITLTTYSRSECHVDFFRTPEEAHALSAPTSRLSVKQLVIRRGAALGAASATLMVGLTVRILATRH

Where “and” joins values, the source holds several entries; their conditions need not be identical. Equal entries are not always repeated. Where two headings read alike, the source gives them in different places. A value given as a limit tells only on which side of the number the result lay.

The target in one data set is T1, MATE1 (Homo sapiens, UniProt Q96FL8).
T1 construct: host or cells: HEK293
T1 sequence (Q96FL8 1-570): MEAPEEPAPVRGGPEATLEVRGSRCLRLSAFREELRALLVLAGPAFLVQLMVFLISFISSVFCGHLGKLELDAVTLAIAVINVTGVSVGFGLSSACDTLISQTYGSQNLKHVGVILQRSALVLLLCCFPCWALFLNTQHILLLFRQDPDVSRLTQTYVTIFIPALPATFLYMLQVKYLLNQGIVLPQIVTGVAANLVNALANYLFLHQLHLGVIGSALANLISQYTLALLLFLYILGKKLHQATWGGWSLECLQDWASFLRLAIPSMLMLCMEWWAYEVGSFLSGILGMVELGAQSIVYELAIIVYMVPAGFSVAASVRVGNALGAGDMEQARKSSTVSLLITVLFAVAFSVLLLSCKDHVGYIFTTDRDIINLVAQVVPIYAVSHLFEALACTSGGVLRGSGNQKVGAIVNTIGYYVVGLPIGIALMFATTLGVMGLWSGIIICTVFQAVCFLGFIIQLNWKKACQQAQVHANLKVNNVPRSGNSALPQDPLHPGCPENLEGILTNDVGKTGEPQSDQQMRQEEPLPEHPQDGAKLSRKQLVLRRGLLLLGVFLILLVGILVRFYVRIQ
Kind of data set: Transporter inhibition, uptake of [14C]-metformin in HEK293 cells. The class given is in vitro ADME. Conditions: probe [14C]-metformin 10 μM. The method, then:
(§1) The test compound (FFA or nFFA) or the positive control substrate ([…], respectively) was added to the donor chamber. […] Cells were then washed, lysed with scintillation cocktail, and analyzed for the probe substrate with a MicroBeta scintillation counter (PerkinElmer, Hopkinton, MA). Transcellular transporter assay conditions are described in Supplemental Table 1. Calculation of IC50 values was based on bidirectional permeability of probe substrate with and without the inhibitor in MDCKII cells expressing BCRP and in Caco‐2 cells expressing P‐gp, and transporter‐dependent uptake of probe substrate in HEK293 cells expressing all other transporters (Supplemental Table 1).
(§2) The transporter-specific uptake of the probe substrate in cells was determined by subtracting the accumulation in the control cells from the accumulation in the transporter-expressing cells.

The conditions of data set [1]: cited from earlier work.
Another data set deals with T2, MATE2‐K (Homo sapiens, UniProt Q86VL8).
T2 construct: host or cells: HEK293
Kind of data set: Transporter inhibition, uptake of [14C]-metformin in HEK293 cells. In kind it is in vitro ADME. To be noted: probe [14C]-metformin 10 μM. The method, then:
as §1, §2

Turning to `CCNC(C)Cc1cccc(C(F)(F)F)c1` (racemic) [FFA, (RS)‐ethyl(α‐methyl‐3‐trifluoromethylphenethyl)amine, reference compound], at MATE1 (IC50, HEK293), the IC50 is 9.02 µM and 9 µM. Besides, the “Cmax, total” value in data set [1] (maximum plasma concentration, modeled (PopPK), 26 mg/day FFA base, 13 mg twice daily, ref Prescribing information: https://www.fintepla.com/) is recorded as 68.0 ng/mL. Also, the ka in data set [1] (ref Modeled (PopPK)) was 0.69 h⁻¹.
Turning to `CC(N)Cc1cccc(C(F)(F)F)c1.Cl` (centres unmarked) [nFFA, [1‐(3‐trifluoromethyl)phenyl]propan‐2‐amine hydrochloride], the IC50 on MATE1 (HEK293, read-out: IC50) is 4.6 µM; against MATE2‐K it was more than 50 µM.
